# AlphaSeq binding of Ab-14 heavy chain variants to a spike HR2 peptide

All variants were tested on one target, the spike HR2 peptide PDVDLGDISGINAS (SARS-CoV-2).

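The starting antibody came from a phage panning campaign against this peptide. These sequences belong to a second round, designed from the earlier measurements on random variants of the parent. Several design methods are mixed in this list. Affinity was read by AlphaSeq, a pooled yeast mating assay with surface-displayed partners. Mating (16 h, 30 °C) was followed by selection of diploids and sequencing of their barcodes. Each replicate has its own calibration line, from reference interactions of the BCL2 family. The assay was run in six technical replicates.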

Parent scFv Ab-14: VH joined to VL by a 15-residue (Gly4Ser)3 linker. Changes lie in the heavy chain CDRs alone.
VH: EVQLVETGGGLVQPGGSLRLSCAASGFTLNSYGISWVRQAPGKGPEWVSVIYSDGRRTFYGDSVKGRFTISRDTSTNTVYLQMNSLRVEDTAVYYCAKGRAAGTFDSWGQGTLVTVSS
VL: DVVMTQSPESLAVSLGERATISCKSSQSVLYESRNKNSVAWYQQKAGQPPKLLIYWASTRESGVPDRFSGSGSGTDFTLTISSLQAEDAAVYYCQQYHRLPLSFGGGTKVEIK

Each variant is given by its three heavy chain CDRs, as the data file delimits them; those of the parent are GFTLNSYGIS, VIYSDGRRTFYGDSVK, GRAAGTFDS.
Variants here have at most six changes.
The read-out is the apparent dissociation constant on a log10 scale (nM): the lower, the stronger.
Replicates are averaged; those with no signal do not enter the mean.
An entry "ND" has no value in the source: the pair was not observed among the diploids in that replicate. This suggests poor binding but is not conclusive.
A sequence measured in both rounds can read differently, since the two assays cover different ranges.
Background: pairings of all heavy chain designs with three empty control strains gave a value in 1% of cases (median 2.08, 5th percentile 0.84). Values in that range, when seen in few replicates, are hard to tell from nonspecific mating.
Some sequences occur more than once in the pool; their replicates are listed entry by entry, parted by semicolons.
In the paper, a design with two or fewer of six values counts as a poor binder.
The parent sequence was in this pool as ten entries: three were never detected, three once, and four in most replicates, with averages from 0.34 to 2.37.

With CFTLNQYGNS | VIYSDGRRTFYSDSVK | GRAAGFFDS the result was ND, ND, ND, ND, ND, ND. With GETLNSYGIS | VIYSDGRRKFYFDSVR | GRASGTFDS the result was ND, ND, ND, ND, ND, ND. The variant GFDLNSYGIS | VIYSDGRRTFYGDSVK | GEAAGTFDA showed 0.12, -0.04, -0.06, 0.03, 0.23, 0.21 (mean 0.08). The variant SFTLNSYGIS | VIYADGRRTFYGDSVK | GWAAGTFKS gave ND, ND, ND, ND, ND, ND. With GFQLNSYGIS | VIYSDGRRTFYGDSVK | GRLAGTFDS the result was ND, ND, 2.65, 1.45, 2.67, ND; 1.61, ND, ND, 1.32, 1.85, 1.72 (mean 1.90). The variant GFTLNDYGIS | VIYSDGRRTLYSDSVK | GRAAGTFDS showed 1.45, 2.23, 1.64, 2.89, 2.16, ND (mean 2.07).

With GFTLNEYGIS | VIYSDGRRTFYSDSVK | GRAAGTFLS the result was 3.43, 0.62, ND, 0.98, ND, 3.85 (mean 2.22). The variant GFELNNYGIS | VIYSDGRRTFYGDSVK | GRTAGTFDS showed 0.54, 0.37, -0.26, 0.00, -0.64, 0.12 (mean 0.02). For GFSLNSYGIS | VIYSDGRRTFYQDSVK | GRQAGTFDS, the assay gave ND, ND, 1.23, 0.63, 1.54, 0.99 (mean 1.10). The variant GFQLNSYGIS | VIYSDGRRTFYADSVK | GREAGTFDT showed 0.76, 0.49, 0.35, 0.00, -0.15, 0.41 (mean 0.31). With GFTLNEYGIS | VIYSDGRRTFYSDSVK | GRAAGVFDS the result was ND, 1.73, 2.63, 2.85, 2.08, ND (mean 2.32). For GFNLNSYGIS | VIYADGRRTFYGDSVK | GRAADTFDS, the assay gave ND, ND, ND, ND, ND, ND.

The variant GFTLNSYGIS | VIYSDGFRTMYGDSVK | GSAAGTFDS gave ND, ND, ND, 2.02, ND, ND. With GFRLNSYGIS | VIYSDGRREFYGDSVK | GRDSGTFDS the result was ND, ND, ND, ND, ND, ND. The variant GFGLNEYGIS | VIYSDGRRTFYVDSVK | GKAAGTFDT showed 0.70, 0.44, 0.48, 0.52, 0.97, 2.48 (mean 0.93). With GFSLNSYGIS | VIYSDGRRTFYADSVK | GSAAGTFDS the result was 0.12, -0.34, -0.02, -0.18, 0.01, 0.04 (mean -0.06). For GFSLNSYGIS | VIYSDGRRTMYGDSVK | GRQAGTFDS, the assay gave 0.88, 1.15, 0.76, 1.35, 1.32, 0.81 (mean 1.04). The variant GFDLNSYGIS | VIYSDGRRTFYIDSVK | GKAAGTFDK gave 0.43, 0.78, 0.84, 0.39, 0.39, 0.61 (mean 0.57).

The variant GFTLNEYGIS | VIYSDGRRTFYQDSVK | GRAAVTFDT gave ND, ND, ND, ND, ND, ND. The variant GFTLNSYGIS | VIYSDGRRTFYSDSVK | GKTAGTFDA gave 0.66, 0.33, 0.63, -0.55, 2.17, 0.93 (mean 0.70). With GFSLNEYGIS | VIYSDGRRTFYGDSVK | GRAAVTFDC the result was ND, ND, ND, ND, 1.82, ND. With GFTLNSYGIS | VIYSDGRRTSYGDSVK | GRAAGTFDS the result was ND, 1.01, ND, ND, ND, 1.41 (mean 1.21). With GFTLNSYGIS | VIYADGRRTFYGDSVK | GWAAGTFDL the result was ND, 0.93, 0.52, 0.44, ND, 0.03 (mean 0.48). For GFWLNEYGIS | VIYSDGRRTEYGDSVK | GRAAGTFDS, the assay gave 0.50, 0.97, 0.56, 0.42, -0.15, 1.23 (mean 0.59).

For GFDLNSYGIS | VIYSDGRRTFYGDSVK | GRTAQWFNS, the assay gave ND, 2.25, ND, ND, ND, ND. The variant GFALNSYGIS | VIYSDGRRTAYADSVK | GRAAGTFDS showed 0.74, 0.32, 0.63, -0.14, 1.02, 1.08 (mean 0.61). With GFTLNSYGIS | VIYSDGRRTFYSDSVK | GAAGGTFDT the result was ND, 1.74, 1.46, 1.14, 1.71, ND (mean 1.51). The variant GFTLSSYGIS | VIYSDGRRTFYGDSVK | GKAEGTFDS showed ND, ND, 2.49, 1.44, ND, ND (mean 1.97). With GFTLNEYGIS | VIYSDGRRRFYTDSVK | GRAAGTFDS the result was 0.36, 0.22, -0.04, 0.04, 0.01, 0.33 (mean 0.15). The variant GFTLNSYGIS | VIYSDGRRTFYGDSVK | GFAAGTDDT showed ND, ND, ND, ND, ND, ND.

The variant GFTLKSYGIS | VIYSDGRRTFYDDSVK | GKVAGTFDS gave -0.42, -0.21, 0.71, -0.64, -0.60, 0.92 (mean -0.04). For GFELNSYGIS | VIYSDGRRTFYGDQVK | GEAAGTFDS, the assay gave 0.72, 1.15, 0.47, 1.30, 1.00, 1.51 (mean 1.02). For GFTLQSYGIS | VIYSDGMRTFYGDSVK | WTAAGTFDS, the assay gave ND, ND, ND, ND, ND, ND. The variant KFQLNEYGIS | VIYSDGRRTFYGDSVK | GRQAGTFDS showed ND, 2.12, 1.39, 1.67, ND, ND (mean 1.73). With GFELNEYGIS | VIYSDGRRTFYGDSVK | GRTAGTFDS the result was -0.30, -0.45, -0.22, -0.51, -0.35, -0.33 (mean -0.36). For GFTLNSYGVS | VIYSDGRRTFYGDSVK | GRAAGTFDS, the assay gave ND, ND, ND, ND, ND, ND.

The variant GFELNEYGIS | VIYSDGRRTFYGDSVK | GSAAGTFDK gave 0.68, 0.21, 0.21, 0.62, 0.52, 0.36 (mean 0.43). With GFSLNEYGIS | VIYSDGRRTFYSDSVK | GRQAGTFDS the result was -0.33, -0.52, -0.46, -0.61, -0.52, -0.24 (mean -0.45). With GFTLNEYGIS | VIYSDGRRTFYGDSVK | GRIAGTFDQ the result was 1.77, 0.75, 0.44, 0.04, 0.75, -0.09 (mean 0.61). With GFSLNEYGIS | VIYSDGRRTFYGDRVK | GQAAGTFDS the result was 0.02, -0.08, 0.03, 0.06, -0.11, 0.25 (mean 0.03).

The closing 3 entries, repeated:

Variant GFSLNEYGIS | VIYSDGRRTFYSDSVK | GRQAGTFDS showed -0.33, -0.52, -0.46, -0.61, -0.52, -0.24 (mean -0.45).
Variant GFTLNEYGIS | VIYSDGRRTFYGDSVK | GRIAGTFDQ showed 1.77, 0.75, 0.44, 0.04, 0.75, -0.09 (mean 0.61).
Variant GFSLNEYGIS | VIYSDGRRTFYGDRVK | GQAAGTFDS showed 0.02, -0.08, 0.03, 0.06, -0.11, 0.25 (mean 0.03).

Values reported by Li et al. 2023, doi:10.1038/s41467-023-39022-2 (FLAb copy).